Assay results as given in publication PMC12102759 (Protein Science : A Publication of the Protein Society, 2025).

Test system: AP2M1 MU
Assay type: binding, human

| Sequence | PSSM value of the substitution (DMS by phage display) |
| --- | --- |
| VSDIDYVPLKSATAIT L9D (VSDIDYVPDKSATAIT) | 0 |
| VSDIDYVPLKSATAIT L9E (VSDIDYVPEKSATAIT) | 0 |
| VSDIDYVPLKSATAIT L9F (VSDIDYVPFKSATAIT) | 0 |
| VSDIDYVPLKSATAIT L9G (VSDIDYVPGKSATAIT) | 0 |
| VSDIDYVPLKSATAIT L9H (VSDIDYVPHKSATAIT) | 0 |
| VSDIDYVPLKSATAIT L9I (VSDIDYVPIKSATAIT) | 0.132 |
| VSDIDYVPLKSATAIT L9K (VSDIDYVPKKSATAIT) | 0 |
| VSDIDYVPLKSATAIT L9L | 0.4588 |
| VSDIDYVPLKSATAIT L9M (VSDIDYVPMKSATAIT) | 0 |
| VSDIDYVPLKSATAIT L9N (VSDIDYVPNKSATAIT) | 0 |
| VSDIDYVPLKSATAIT L9P (VSDIDYVPPKSATAIT) | 0 |
| VSDIDYVPLKSATAIT L9Q (VSDIDYVPQKSATAIT) | 0 |
| VSDIDYVPLKSATAIT L9R (VSDIDYVPRKSATAIT) | 0 |
| VSDIDYVPLKSATAIT L9S (VSDIDYVPSKSATAIT) | 0 |
| VSDIDYVPLKSATAIT L9T (VSDIDYVPTKSATAIT) | 0 |
| VSDIDYVPLKSATAIT L9V (VSDIDYVPVKSATAIT) | 0.06522 |
| VSDIDYVPLKSATAIT L9W (VSDIDYVPWKSATAIT) | 0.344 |
| VSDIDYVPLKSATAIT L9Y (VSDIDYVPYKSATAIT) | 0 |
| VSDIDYVPLKSATAIT P8A (VSDIDYVALKSATAIT) | 0 |
| VSDIDYVPLKSATAIT P8D (VSDIDYVDLKSATAIT) | 0.001823 |
| VSDIDYVPLKSATAIT P8E (VSDIDYVELKSATAIT) | 0.9723 |
| VSDIDYVPLKSATAIT P8F (VSDIDYVFLKSATAIT) | 0 |

| Sequence | PSSM value of the substitution (DMS by phage display) |
| --- | --- |
| VSDIDYVPLKSATAIT P8G (VSDIDYVGLKSATAIT) | 0 |
| VSDIDYVPLKSATAIT P8H (VSDIDYVHLKSATAIT) | 0 |
| VSDIDYVPLKSATAIT P8I (VSDIDYVILKSATAIT) | 0 |
| VSDIDYVPLKSATAIT P8K (VSDIDYVKLKSATAIT) | 0.001823 |
| VSDIDYVPLKSATAIT P8L (VSDIDYVLLKSATAIT) | 0 |
| VSDIDYVPLKSATAIT P8M (VSDIDYVMLKSATAIT) | 0 |
| VSDIDYVPLKSATAIT P8N (VSDIDYVNLKSATAIT) | 0 |
| VSDIDYVPLKSATAIT P8P | 0.005012 |
| VSDIDYVPLKSATAIT P8Q (VSDIDYVQLKSATAIT) | 0 |
| VSDIDYVPLKSATAIT P8R (VSDIDYVRLKSATAIT) | 0 |
| VSDIDYVPLKSATAIT P8S (VSDIDYVSLKSATAIT) | 0 |
| VSDIDYVPLKSATAIT P8T (VSDIDYVTLKSATAIT) | 0 |
| VSDIDYVPLKSATAIT P8V (VSDIDYVVLKSATAIT) | 0.01908 |
| VSDIDYVPLKSATAIT P8W (VSDIDYVWLKSATAIT) | 0 |
| VSDIDYVPLKSATAIT P8Y (VSDIDYVYLKSATAIT) | 0 |
| VSDIDYVPLKSATAIT S2A (VADIDYVPLKSATAIT) | 0.003011 |
| VSDIDYVPLKSATAIT S2D (VDDIDYVPLKSATAIT) | 0 |
| VSDIDYVPLKSATAIT S2E (VEDIDYVPLKSATAIT) | 0 |
| VSDIDYVPLKSATAIT S2F (VFDIDYVPLKSATAIT) | 0.06382 |
| VSDIDYVPLKSATAIT S2G (VGDIDYVPLKSATAIT) | 0.0003628 |
| VSDIDYVPLKSATAIT S2H (VHDIDYVPLKSATAIT) | 0 |
| VSDIDYVPLKSATAIT S2I (VIDIDYVPLKSATAIT) | 0.001097 |

| Sequence | PSSM value of the substitution (DMS by phage display) |
| --- | --- |
| VSDIDYVPLKSATAIT S2K (VKDIDYVPLKSATAIT) | 0.00599 |
| VSDIDYVPLKSATAIT S2L (VLDIDYVPLKSATAIT) | 0.004479 |
| VSDIDYVPLKSATAIT S2M (VMDIDYVPLKSATAIT) | 0.007032 |
| VSDIDYVPLKSATAIT S2N (VNDIDYVPLKSATAIT) | 0 |
| VSDIDYVPLKSATAIT S2P (VPDIDYVPLKSATAIT) | 0.09109 |
| VSDIDYVPLKSATAIT S2Q (VQDIDYVPLKSATAIT) | 0.006565 |
| VSDIDYVPLKSATAIT S2R (VRDIDYVPLKSATAIT) | 0.8051 |
| VSDIDYVPLKSATAIT S2S | 0.002552 |
| VSDIDYVPLKSATAIT S2T (VTDIDYVPLKSATAIT) | 0.005684 |
| VSDIDYVPLKSATAIT S2V (VVDIDYVPLKSATAIT) | 0 |
| VSDIDYVPLKSATAIT S2W (VWDIDYVPLKSATAIT) | 0.001291 |
| VSDIDYVPLKSATAIT S2Y (VYDIDYVPLKSATAIT) | 0.001913 |
| VSDIDYVPLKSATAIT S11A (VSDIDYVPLKAATAIT) | 0.001589 |
| VSDIDYVPLKSATAIT S11D (VSDIDYVPLKDATAIT) | 0.00113 |
| VSDIDYVPLKSATAIT S11E (VSDIDYVPLKEATAIT) | 0.00113 |
| VSDIDYVPLKSATAIT S11F (VSDIDYVPLKFATAIT) | 0.00549 |
| VSDIDYVPLKSATAIT S11G (VSDIDYVPLKGATAIT) | 0 |
| VSDIDYVPLKSATAIT S11H (VSDIDYVPLKHATAIT) | 0 |
| VSDIDYVPLKSATAIT S11I (VSDIDYVPLKIATAIT) | 0 |
| VSDIDYVPLKSATAIT S11K (VSDIDYVPLKKATAIT) | 0.03863 |
| VSDIDYVPLKSATAIT S11L (VSDIDYVPLKLATAIT) | 0.002329 |
| VSDIDYVPLKSATAIT S11M (VSDIDYVPLKMATAIT) | 0 |

| Sequence | PSSM value of the substitution (DMS by phage display) |
| --- | --- |
| VSDIDYVPLKSATAIT S11N (VSDIDYVPLKNATAIT) | 0 |
| VSDIDYVPLKSATAIT S11P (VSDIDYVPLKPATAIT) | 0.01447 |
| VSDIDYVPLKSATAIT S11Q (VSDIDYVPLKQATAIT) | 0.9003 |
| VSDIDYVPLKSATAIT S11R (VSDIDYVPLKRATAIT) | 0 |
| VSDIDYVPLKSATAIT S11S | 0.003106 |
| VSDIDYVPLKSATAIT S11T (VSDIDYVPLKTATAIT) | 0 |
| VSDIDYVPLKSATAIT S11V (VSDIDYVPLKVATAIT) | 0.0159 |
| VSDIDYVPLKSATAIT S11W (VSDIDYVPLKWATAIT) | 0.001786 |
| VSDIDYVPLKSATAIT S11Y (VSDIDYVPLKYATAIT) | 0.01416 |
| VSDIDYVPLKSATAIT T13A (VSDIDYVPLKSAAAIT) | 0.001387 |
| VSDIDYVPLKSATAIT T13D (VSDIDYVPLKSADAIT) | 0.01469 |
| VSDIDYVPLKSATAIT T13E (VSDIDYVPLKSAEAIT) | 0.0395 |
| VSDIDYVPLKSATAIT T13F (VSDIDYVPLKSAFAIT) | 0.2232 |
| VSDIDYVPLKSATAIT T13G (VSDIDYVPLKSAGAIT) | 0.001097 |
| VSDIDYVPLKSATAIT T13H (VSDIDYVPLKSAHAIT) | 0.02042 |
| VSDIDYVPLKSATAIT T13I (VSDIDYVPLKSAIAIT) | 0.002859 |
| VSDIDYVPLKSATAIT T13K (VSDIDYVPLKSAKAIT) | 0 |
| VSDIDYVPLKSATAIT T13L (VSDIDYVPLKSALAIT) | 0.00195 |
| VSDIDYVPLKSATAIT T13M (VSDIDYVPLKSAMAIT) | 0.0765 |
| VSDIDYVPLKSATAIT T13N (VSDIDYVPLKSANAIT) | 0.0008055 |
